Measurements published in patent US20050136444A1 (priority 2003, published 2005).
Where a name gives a salt, the structure may show the parent alone.

Chains of the proteins cited; added tags and fusions are not shown. Residues count along the entry.
UniProt Q9Y5X5, 103-522: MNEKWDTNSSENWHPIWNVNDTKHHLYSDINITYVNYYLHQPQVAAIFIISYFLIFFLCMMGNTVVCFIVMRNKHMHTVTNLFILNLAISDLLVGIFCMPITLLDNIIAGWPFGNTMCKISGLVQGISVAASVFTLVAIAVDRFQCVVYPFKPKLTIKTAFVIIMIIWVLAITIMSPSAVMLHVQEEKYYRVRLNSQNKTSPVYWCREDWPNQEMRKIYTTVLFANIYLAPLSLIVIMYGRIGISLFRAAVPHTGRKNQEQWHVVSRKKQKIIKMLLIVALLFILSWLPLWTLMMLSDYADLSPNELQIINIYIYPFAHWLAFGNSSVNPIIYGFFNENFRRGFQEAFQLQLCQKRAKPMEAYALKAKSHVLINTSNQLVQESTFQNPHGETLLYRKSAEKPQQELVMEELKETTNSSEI

Assays:
NPFF2 = biological target: T1, NPFF2 (Homo sapiens, UniProt Q9Y5X5); assay: Receptor Selection and Amplification Technology (R-SAT) functional assay, NPFF2; format: cell-based; conditions: Table 1, NA = No activity detectable at the highest dose tested (20 μM), read-out: NPFF2 pEC50 (converted)
T1 construct: expressed in transfected cells; host or cells: NIH3T3

NPFF2b = biological target: T2, NPFF2b (Homo sapiens, UniProt Q9Y5X5); assay: cAMP assay in transiently transfected HEK-T cells, NPFF2; format: cell-based; conditions: HEK-T cell, cAMP data, Table 2, read-out: NPFF2b % Efficacy Mean
T2 construct: expressed in transfected cells; host or cells: HEK-T
Protocol: An assay was established for measuring cAMP in transiently transfected cells that takes advantage of the fact that most cells that are transfected with one gene, can be simultaneously transfected with other genes. Thus, the NPFF1 and NPFF2 receptors were transfected along with a Gs-coupled receptor (EP2) at a ratio of 5:1. In un-transfected HEK-T cells there is no response to PGE2 (agonist for EP2) at doses as high 10 μM. […] Improvement was also detected in the sensitivity of the assay in some cases when cells are co-transfected with AC5 at ½-⅕ of the amount of DNA of the Gi-coupled receptor studied.
This set up was routinely used for the transfection of HEK-T cells with NPFF1 and NPFF2 receptors. After 48 hours the cAMP assay was set up using DiscoveRx assay protocol with transfected cells in suspension in the presence of varying concentrations of the NPFF ligands and 300 nM of […] in white bottom plates. Cells were incubated for 15 minutes at 37° C. At the end of incubation, cells were lysed and the remainder of the assay performed as per DiscoveRx protocol.
For antagonist assays, the cells were pre-incubated with antagonists for 15 minutes at 37° C. prior to the addition of agonist and then PGE2 in order. Cells were incubated for another 15 minutes at 37° C. following which the cells were lysed and processed as per kit protocol.

| EC50 (NPFF2) [nM] | Emax (NPFF2b) [%] | Compound |
| --- | --- | --- |
| 631 | – | NC(N)=NN=Cc1ccc(Cl)c(C(F)(F)F)c1 [Compound 2035, 1-[4-Chloro-3-(trifluoromethyl)benzylideneamino]guanidine Hydrochloride] |
| – | 78 | Cl.N=C(N)N/N=C/c1ccc(Br)c(Br)c1 [Compound 3093, 1-(3,4-Dibromobenzylideneamino)guanidine Hydrochloride] |
